scFv variants of Ab-14 (light chain) against a SARS-CoV-2 spike peptide

Reference: Li et al. 2023, doi:10.1038/s41467-023-39022-2. File: FLAb, binding data.

The target is the same throughout: PDVDLGDISGINAS, from the HR2 region of SARS-CoV-2 spike.

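Phage display of a naive human antibody library on the peptide gave the parent. The variants were designed computationally from a first round of random CDR variants and then made and measured. Group labels follow the data file (Ctrl: baseline library sampled from a position-specific scoring matrix, with some repeated check sequences; En: ensemble of fine-tuned language models; GP: Gaussian process model; GPLM: also part of the Gaussian process libraries; HC: hill climbing; Gen: genetic algorithm; Gibbs: Gibbs sampling; a sequence that several methods proposed may carry one label only). The scFvs were displayed on barcoded MATa yeast, the peptide on MATalpha yeast. Binding brings cells together so that they mate, and sequencing counts the barcode pairs among the diploids. Scores were corrected for input abundance and mapped to Kd with protein pairs of known affinity run in the same pool. Each pool was mated in six replicate cultures.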

Parent scFv Ab-14: VH joined to VL by three GGGGS repeats. Changes lie in the light chain CDRs alone.
VH: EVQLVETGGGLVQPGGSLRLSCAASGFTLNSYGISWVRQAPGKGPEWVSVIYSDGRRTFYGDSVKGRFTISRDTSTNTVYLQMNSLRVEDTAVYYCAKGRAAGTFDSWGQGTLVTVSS
VL: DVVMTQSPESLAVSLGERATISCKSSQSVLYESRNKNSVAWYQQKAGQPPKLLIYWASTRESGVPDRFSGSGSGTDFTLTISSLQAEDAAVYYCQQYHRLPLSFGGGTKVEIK

Variants are written as CDR1, CDR2 and CDR3 of the light chain (limits as in the source). Parent: KSSQSVLYESRNKNSVA, WASTRES, QQYHRLPLS.
Scale: log10 of Kd in nM, estimated from mating counts; low values are strong binders.
"ND" means that the variant was in the library but no mating with the target was seen in that replicate; the authors take this as a sign of poor binding, and no number exists.

| # | CDR-L1 | CDR-L2 | CDR-L3 | group | log10 Kd (nM) by replicate | signal with controls |
|---|---|---|---|---|---|---|
| 1 | SLYGEYALPDQHTDSIA | DANLMMH | QQYHRLPLA | En_Gibbs | 0.81 0.25 0.40 0.28 0.51 0.66 | 1/18 (1.87) |
| 2 | KLPQSWLYESANSNSVA | HASQRED | QQYHRLPLS | GP_Gibbs | 0.20 0.03 -0.10 -0.24 -0.18 0.21 | 0/18 |
| 3 | KFSQSKLYESRNKNSVA | WASTREQ | QQYHRLPLS | Ctrl | 0.93 0.85 0.74 0.86 0.78 0.64 | 2/18 (2.77) |
| 4 | KSSISYLYESVNKNSVA | EASTRES | QQYHRLPLS | GP_HC | 0.83 0.29 0.42 0.36 0.41 0.66 | 2/18 (2.94) |
| 5 | KSSQSVLYEERNKNSVA | EASTRES | QQYHRLPLS | Ctrl | 0.11 -0.18 0.10 0.14 -0.06 0.10 | 1/18 (2.63) |
| 6 | KSAYSELGESRNKNSVA | SASTRES | QQYHRLPLS | GP_Gibbs | 0.90 0.52 0.23 0.72 0.47 0.86 | 0/18 |
| 7 | KSSQSWLYFSRNKNSVA | GASTRES | QQYHRLPLS | GPLM_HC | 0.84 0.67 0.37 0.77 1.06 0.93 | 1/18 (2.89) |
| 8 | KLSQSYLYESRVKNSVA | NASTRES | QQYHRLPLS | GP_Gen | 0.95 0.40 0.32 0.71 0.23 0.57 | 0/18 |
| 9 | MMSQVTGQGQRHRNNVA | QTSTREE | QQYDRLPLI | En_Gen | 1.32 0.90 1.24 1.59 1.29 0.52 | 0/18 |
| 10 | KSSQEVLYFSREKNSVA | WASTRES | QQPHRLPLS | Ctrl | ND ND 1.85 ND ND ND | 1/18 (1.14) |
| 11 | MISQMYNMGQFAINSVA | QASERNE | QQYDRLPLQ | En_Gen | 2.10 1.53 2.46 1.95 1.81 1.33 | 1/18 (2.31) |
| 12 | GVTHTMESAQQAPNSIA | NAEQTTI | QQYQRLPLS | En_Gibbs | 0.78 0.63 0.64 0.61 0.39 1.10 | 0/18 |
| 13 | KLPQSMQYESRNKNSVA | SASTRES | QQYHRLPLS | GP_Gibbs | -0.03 -0.02 -0.16 -0.31 -0.17 0.06 | 0/18 |
| 14 | HISIKLPGNWKMMDSVA | HSELRAE | QQYDRLPLG | En_Gibbs | 0.70 0.54 0.53 0.68 0.68 0.87 | 0/18 |
| 15 | SFERGIDGNSLVQNNVA | EGTTLWE | QQYMRLPLA | En_Gibbs | -0.15 -0.08 -0.31 -0.26 -0.14 -0.02 | 0/18 |
| 16 | MVSMEPNEGTRYWEAVA | DHSQRNN | QQYDQLPLS | En_Gibbs | ND ND ND ND ND ND | 0/18 |
| 17 | MISQVLNMLTKTGNNVA | DLAERED | QQYFRLPLS | En_Gen | 1.13 1.50 ND 1.63 ND ND | 1/18 (2.13) |
| 18 | ALSFEMESPHNHSNNVA | SESKLCS | QQYFTLPLS | En_Gibbs | ND ND ND ND ND ND | 0/18 |
| 19 | YSSISYLYESPNKNSVA | EASTRER | QQYHRLPLS | GP_HC | 0.78 0.80 0.59 0.69 0.48 0.64 | 0/18 |
| 20 | KVSQSALYESRNKNSVA | NASTRES | QQYHRLPLS | GP_Gen | 0.72 0.51 0.43 0.71 0.60 0.69 | 2/18 (2.57) |
| 21 | TLYGLSNSMSKNKNNVA | EMSTREP | QQYDRLPLQ | En_Gen | 0.84 0.50 0.75 0.55 0.58 0.65 | 1/18 (3.28) |
| 22 | KSSISYLYESMNKNSVA | AASTRES | QQYHRLPLS | GP_HC | 0.20 0.41 0.28 -0.15 0.30 0.45 | 1/18 (2.87) |
| 23 | HLGLATMLEEYVRNSVA | NNSTRES | QQYDRLPLS | En_Gen | ND 2.01 1.62 ND 3.42 ND | 2/18 (3.05) |
| 24 | KLSWSWLYESRNKNNVA | NASTRES | QQYHRLPLS | GP_Gen | -0.16 -0.22 -0.13 -0.35 -0.28 -0.08 | 2/18 (3.58) |
| 25 | KSSHSVLAESRNKNQVA | WASTRES | QQYHRFPLS | Ctrl | 1.57 1.69 ND ND 1.38 2.84 | 0/18 |

Second part, the sequence after the result:

| # | log10 Kd (nM) by replicate | signal with controls | CDR-L1 | CDR-L2 | CDR-L3 | group |
|---|---|---|---|---|---|---|
| 26 | ND ND ND ND ND ND | 1/18 (1.70) | TLSGHQYNYSQKKNSIA | EDNNIRL | QQYWRLPLM | En_Gibbs |
| 27 | 0.61 0.72 0.32 0.38 0.18 0.87 | 0/18 | KSSQEVLYESRNKNSVA | SASTRES | QQYHRLPLS | Ctrl |
| 28 | 0.31 0.38 0.68 0.27 0.16 0.58 | 3/18 (2.64) | KLSQSFLMESMNKNSVA | EASTRIW | QQYHRLPLS | GP_Gibbs |
| 29 | ND 1.32 1.78 0.64 0.96 1.42 | 0/18 | MLSMVTEGMVRKHDSVA | DNSTRED | QQYDRLPLS | En_Gen |
| 30 | ND 2.21 2.95 1.93 ND 3.19 | 0/18 | IVSQLMLWGMHAKNSIA | EAEKRIN | QQYHRLPLI | En_Gen |
| 31 | -0.06 -0.13 -0.04 -0.26 -0.24 -0.04 | 1/18 (1.67) | QLSQSHLYESRNKNSVA | EASTREQ | QQYHRLPLS | GP_Gibbs |
| 32 | 0.80 0.50 0.29 0.31 0.29 0.58 | 1/18 (3.50) | TISTSTYWESRNKNSVA | QTSTREE | QDYDRLPLS | En_HC |
| 33 | 1.05 0.91 0.84 0.73 0.75 0.83 | 2/18 (4.12) | KSSQLVLDESRNNNSVA | AASTRES | QQYARLPLS | Ctrl |
| 34 | 0.28 0.22 0.02 0.11 0.17 0.35 | 1/18 (1.97) | KLYMGVDYGDRNKNQVA | HASTRES | QQYHRLPLS | GP_Gibbs |
| 35 | 0.52 1.28 1.26 0.91 0.94 1.88 | 1/18 (2.07) | MISDLTMYGSRNVNSVA | DLSTRGR | QQYHRLPLS | En_HC |
| 36 | 1.99 2.73 2.49 3.46 2.27 ND | 3/18 (2.44) | RIADMMNRDGYRQQAVA | EDSVRWD | QQYAQLPLA | En_Gibbs |
| 37 | ND 3.10 3.08 ND ND ND | 1/18 (2.68) | MLSQMWALGMKAKNSVA | QANMRFN | QQYDRLPLI | En_Gen |
| 38 | 1.26 1.30 0.79 1.34 0.86 1.56 | 0/18 | MISQLYNMGSFAINSVA | QASERNN | QQYDRLPLM | En_Gen |
| 39 | -0.01 1.08 0.67 0.31 0.56 0.59 | 0/18 | KFLSLSLHQTGNLNSVA | DAEETQT | QQYMRLPLM | En_Gibbs |
| 40 | 0.79 0.57 0.47 0.37 0.44 0.73 | 1/18 (4.39) | KLLQSVNYGSRALNSVA | QMETRED | QQYDRLPLS | En_HC |
| 41 | 0.99 0.41 0.81 0.40 0.77 0.80 | 1/18 (2.55) | KLPNSTLYESRMKNSVA | WASTRES | QQYHRLPLS | GP_HC |
| 42 | -0.17 -0.10 -0.20 -0.29 -0.24 -0.17 | 2/18 (1.47) | KVSQSVLYESRNKNSVA | DASTRES | QSYHRLPLS | GP_Gen |
| 43 | ND ND ND ND ND ND | 1/18 (2.21) | KSSQSVTYESRNKNSVA | WATTRES | QQYHRLPLS | Ctrl |
| 44 | ND 0.35 1.06 0.16 0.60 1.42 | 0/18 | KLSMITGHMSMSRNNVA | EMVTREN | QQYDRLPLS | En_Gen |
| 45 | 0.16 1.26 1.62 0.17 0.63 0.05 | 0/18 | HISPSFMVESRLKNSVA | QTETRES | QQYDRLPLS | En_HC |
| 46 | ND 1.54 ND 1.25 1.29 1.42 | 0/18 | KSSQSVDYESRNHNSVA | WASTREY | QQYYRLPLS | Ctrl |
| 47 | 0.71 0.87 0.88 0.92 0.81 1.02 | 0/18 | KIELSNSVSLRGTRAIA | QGSTRAH | QQYHRLPLT | En_Gibbs |
| 48 | 0.88 1.28 1.91 1.13 0.98 1.24 | 0/18 | QLYAVNDLTSKNSNNVA | EQTTREN | QQYHRLPLS | En_HC |
| 49 | 1.41 1.39 1.29 1.32 1.43 1.92 | 0/18 | MINGSVMSESRLKNSVA | QTTTRES | QQYDRLPLS | En_HC |
| 50 | 0.31 0.38 0.16 0.41 0.19 0.34 | 1/18 (2.76) | KLSQSMEYESRNSNSVA | QASTREH | QQYHRLPLM | GP_Gibbs |

Empty control strains, which show no peptide, gave a signal in 4% of pairings with all light chain designs; the median was 2.64 and 95% of these signals were weaker than 1.59. No background was subtracted. For each scFv, signals with the empty controls are counted beside the result, with their mean in brackets.
Of ten entries with the parent sequence, four were seen in most replicates (averages 0.34 to 2.37), three in one and three in none, so single entries are noisy.
The range of this assay differs from that of the first round, and the authors advise against merging the two.
The authors averaged sequences with at least three values out of six and counted those with two or fewer as poor binders.